{"sequences": {"note": "Amino acid sequences for entries named in this document (tags omitted). A change or cut given only in a name is not applied to a line headed by its entry.", "UniProt Q9QZN9": "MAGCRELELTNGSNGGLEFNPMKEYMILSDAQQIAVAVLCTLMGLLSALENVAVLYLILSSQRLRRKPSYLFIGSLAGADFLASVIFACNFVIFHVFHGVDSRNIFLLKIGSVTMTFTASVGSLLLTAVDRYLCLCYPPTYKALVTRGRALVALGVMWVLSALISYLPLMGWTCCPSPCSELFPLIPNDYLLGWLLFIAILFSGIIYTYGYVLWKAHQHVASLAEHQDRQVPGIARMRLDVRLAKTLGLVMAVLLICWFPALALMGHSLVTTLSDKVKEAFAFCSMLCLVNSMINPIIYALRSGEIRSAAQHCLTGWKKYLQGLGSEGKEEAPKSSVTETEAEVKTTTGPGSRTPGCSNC"}, "source": "patent US7960376B2", "about": "“Benzo-fused heterocycles” (priority 2007, dated 2011)", "molecular_target": "rat CB2 receptor (rCB2) (Rattus norvegicus, UniProt Q9QZN9)", "test": "cAMP assay (LANCE TR-FRET) in CHO-K1 cells expressing rCB2", "assay_type": "cell-based", "settings": "read-out: rCB2 EC50 range, intracellular cAMP, NKH-477 prestimulated, + agonist, − inverse agonist"}
{"smiles": "O=S(=O)(c1ccc(C(F)(F)F)cc1)N1CCSc2ccc(-c3nc(-c4cccc(C(F)(F)F)c4)no3)cc21", "note": "[Example 80, 3-(3-(trifluoromethyl)phenyl)-5-(4-(4-(trifluoromethyl)phenylsulfonyl)-3,4-dihydro-2H-benzo[b][1,4]thiazin-6-yl)-1,2,4-oxadiazole]", "values": [{"measurement": "EC50", "result": "> 10", "unit": "µM"}]}
